Sequences of proteins named here, by UniProt entry; tags and fusion partners are left off.
UniProt Q01959, whole entry: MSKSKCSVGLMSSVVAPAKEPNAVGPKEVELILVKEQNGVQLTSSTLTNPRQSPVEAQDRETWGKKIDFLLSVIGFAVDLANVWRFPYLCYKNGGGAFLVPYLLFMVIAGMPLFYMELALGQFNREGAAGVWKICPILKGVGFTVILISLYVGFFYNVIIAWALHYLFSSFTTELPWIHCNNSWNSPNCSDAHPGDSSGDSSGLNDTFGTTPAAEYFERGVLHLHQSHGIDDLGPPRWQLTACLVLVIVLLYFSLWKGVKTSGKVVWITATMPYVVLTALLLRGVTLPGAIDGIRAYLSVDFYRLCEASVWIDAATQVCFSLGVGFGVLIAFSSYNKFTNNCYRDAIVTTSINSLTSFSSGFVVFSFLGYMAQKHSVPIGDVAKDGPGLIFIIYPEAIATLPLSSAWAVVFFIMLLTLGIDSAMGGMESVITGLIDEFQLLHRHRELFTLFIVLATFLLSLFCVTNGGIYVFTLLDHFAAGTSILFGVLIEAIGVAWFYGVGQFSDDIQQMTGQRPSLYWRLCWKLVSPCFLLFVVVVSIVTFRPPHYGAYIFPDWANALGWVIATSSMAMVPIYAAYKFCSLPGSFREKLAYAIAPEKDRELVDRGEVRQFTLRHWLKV

In US9908897B2, “Spirocyclic derivatives” (CHRONOS THERAPEUTICS LIMITED, priority 2014, dated 2018):

Biological target: human dopamine transporter (DAT) (Homo sapiens (Human), UniProt Q01959)
Test: Scintillation Proximity Assay (SPA) competition binding, human DAT
Conditions: recombinant hDAT-CHO membranes, [3H]WIN-35,428
Description: Measure of Affinity to the Human Transporters DAT, NET and SERT
Affinity is expressed in terms of inhibition constant (Ki) of the compounds of the invention for DAT, NET and SERT, and it is typically calculated from the IC50 values obtained in competition experiments using Cheng and Prusoff equation (Cheng and Prusoff, Biochem. Pharmacol. 22:3099, 1973). In the context of the present invention pKi values (corresponding to the antilogarithm of Ki) are used instead of Ki; pKi are only estimated to be accurate to about 0.3 log unit.
Scintillation Proximity Assay (SPA) for Human DAT, NET and SERT Binding
Chinese Hamster Ovary (CHO) cells stably expressing either human DAT (hDAT-CHO) or human NET (hNET-CHO) or human SERT (hSERT-CHO) are used for the membrane preparations for radioligand binding assays using Scintillation proximity Assay (SPA) technique. Each cell line is cultured independently in F-12K Nutrient Mixture containing 10% of Fetal Bovine Serum (FBS) supplemented with 450 μg/ml G-418. When cells are at 70-80% of confluence 3 mM Na Butyrate was added to the cell culture medium. After 24 h of incubation, the culture medium was removed and the cells detached with Versene (DAT) or by scraping (NET and SERT). Cell suspension is centrifuged at 41,000 g for 10 minutes at 4° C. The resultant pellets are re-suspended in 15 volumes of Ice-cold buffer (20 mM HEPES, 145 mM NaCl, 5 mM KCl, pH7.3), homogenized using an Ultra Turrax homogeniser and centrifuged as before. The resultant membrane pellets are re-suspended in up to 15 volume of ice-cold buffer, incubated for 20 minutes at 37-C and centrifuged as before at 41,000 g. The final membrane pellets are re-suspended into 5-10 volumes of ice-cold buffer, dispensed into 0.5 ml aliquots and stored at −80° C. until use. Protein concentration for each preparation is determined using Bio-Rad Protein Assay kit.
The affinity of the compounds of the invention to the human DAT or NET or SERT transporters is assessed by using the [^3H]WIN-35,428 or [^3H]nisoxetine or [^3H]citalopram binding assays in recombinant human DAT, NET and SERT membranes with the SPA technology. The final assay volume is 50 μL in 384 well plates.
Briefly, 0.5 μL of test compound in neat DMSO or 0.5 μL of DMSO for total binding (TB) or 0.5 μL of indatraline 1 mM (10 μM final concentration) for non specific binding (NSB) are added to the assay plate. 50 μL of the SPA mixture is added to each well, containing: 30 μg/mL or 10 μg/mL or 25 μg/mL DAT, NET, SERT membranes, respectively; 5 nM [^3H]WIN-35,428 or 5 nM [^3H]nisoxetine or 1 nM [^3H]citalopram, for DAT, NET, SERT assay, respectively; 2.5 mg/mL or 1 mg/mL or 4 mg/mL WGA-PVT SPA beads (PerkinElmer RPNQ0001, for DAT, NET, SERT assay, respectively. All components are added to Assay Buffer (20 mM HEPES pH 7.4, 145 mM NaCl, 5 mM KCl, 0.01% Pluronic F-127). 0.02% BSA was used for DAT binding only. Plates are sealed with Topseal A and centrifuged 1 min, 800 rpm. Plates are loaded into a 1450 Microbeta TriLux (Perkin-Elmer) plate reader and the radioactivity counted after at least 4 hrs or overnight incubation at room temperature. Curve fitting and IC50 estimations are performed using a four parameter model in XLfit (IDBS, Guilford, UK) for Microdoft Excel (Microsoft, Redmond, Wash.).

SMILES: O[C@H]1CNCC[C@@]12CCN(c1nc(Oc3cccc(F)c3)cc(C(F)(F)F)n1)C2 (single isomer, unassigned) [Example 101, 2-[4-(3-fluorophenoxy)-6-(trifluoromethyl)pyrimidin-2-yl]-2,8-diazaspiro[4.5]decan-6-ol]
- IC50: 6.92 nM

SMILES: OC1CNCCC12CCN(c1nc(Oc3cccc(F)c3)cc(C(F)(F)F)n1)C2 (centres unmarked) [Example 97, 2-[4-(3-fluorophenoxy)-6-(trifluoromethyl)pyrimidin-2-yl]-2,8-diazaspiro[4.5]decan-6-ol]
- pIC50 DAT: 8.41

SMILES: O[C@H]1CNCC[C@@]12CCN(c1nc(Oc3cccc(F)c3)cc(C(F)(F)F)n1)C2 (single isomer, unassigned) [Example 99, 2-[4-(3-fluorophenoxy)-6-(trifluoromethyl)pyrimidin-2-yl]-2,8-diazaspiro[4.5]decan-6-ol]
- IC50: 8.71 nM

SMILES: O[C@H]1CNCC[C@@]12CCN(c1nc(Oc3cccc(F)c3)cc(C(F)(F)F)n1)C2 (single isomer, unassigned) [Example 100, 2-[4-(3-fluorophenoxy)-6-(trifluoromethyl)pyrimidin-2-yl]-2,8-diazaspiro[4.5]decan-6-ol]
- IC50: 11.2 nM

SMILES: OC1CNCCC12CCN(c1nc(Oc3cccc(F)c3)cc(C(F)(F)F)n1)C2 (centres unmarked) [Example 96, 2-[4-(3-fluorophenoxy)-6-(trifluoromethyl)pyrimidin-2-yl]-2,8-diazaspiro[4.5]decan-6-ol]
- pIC50 DAT: 7.95
